Laboratory results taken from patent EP3967307B1, “PIM KINASE INHIBITORS TO AUGMENT THE EFFICACY OF ANTI-CD20 ANTIBODY-BASED THERAPIES FOR USE IN THE TREATMENT OF HEMATOLOGIC MALIGNANCIES” (dated 2026).

Assays:
[1] = test system: RAJI cells; test: Complement-dependent cytotoxicity assay with rituximab (RAJI)
[2] = test system: CD20; test: Surface CD20 expression by flow cytometry (DHL4); details: DHL4 (DLBCL) cells; 3µM SGI-1776 for 48h or 5µM PIM447 for 72h; vs DMSO
[3] = test system: MYC; test: MYC expression by immunoblotting after PIM inhibitor treatment (RAJI); details: RAJI (BL) cells, 24 hours, vs DMSO, GAPDH loading control
[4] = test system: DHL4 cells; test: Antibody-dependent cellular phagocytosis (ADCP) assay; details: DHL4 cells treated 72 hours with SGI-1776 (3µM) or PIM447 (7µM); human blood-derived macrophages, rituximab 1µg/ml, 2h at 37°C; vs DMSO
[5] = test system: CD20; test: Surface CD20 expression by flow cytometry (RAJI); details: RAJI (BL) cells; 2µM SGI-1776 for 48h or 5µM PIM447 for 72h; vs DMSO
[6] = test system: MYC; test: MYC expression by immunoblotting after PIM inhibitor treatment (DHL4); details: DHL4 (DLBCL) cells, 24 hours, vs DMSO, GAPDH loading control
[7] = test system: DHL4 cells; test: Complement-dependent cytotoxicity assay with rituximab (DHL4)

CN1CCC(CNc2ccc3ncc(-c4cccc(OC(F)(F)F)c4)n3n2)CC1
% of PI-positive (apoptotic) cells ([1]; RAJI cells pretreated with 2µM SGI-1776 48h or 5µM PIM447 72h, then rituximab 0.1-100 µg/ml 1 hour, 10% human serum, vs DMSO-treated cells exposed to rituximab): marked increase in apoptosis | combinatory indexes (CI) ([1]; RAJI cells, combination with rituximab, Chou-Talalay, CompuSyn): synergistic effects | CD20 surface abundance [2]: elevate surface CD20 expression | MYC expression [3]: downregulates MYC protein | phagocytic index (ingested CFSE-labelled DLBCL cells per 100 macrophages) [4]: potentiated rituximab-dependent phagocytosis | CD20 surface abundance [5]: elevate surface CD20 expression | MYC expression [6]: downregulates MYC protein | % of PI-positive (apoptotic) cells ([7]; DHL4 cells pretreated with 3µM SGI-1776 48h or 5µM PIM447 72h, then rituximab 0.1-100 µg/ml 1 hour, 10% human serum, vs DMSO-treated cells exposed to rituximab): marked increase in apoptosis | combinatory indexes (CI) ([7]; DHL4 cells, combination with rituximab, Chou-Talalay, CompuSyn): synergistic effects
